Test results from patent publication US20110065208A1, “DETERMINATION AND ESTIMATION OF ABSORPTION AND DISTRIBUTION OF SUBSTANCES IN BRAIN TISSUE” (SOVICELL GMBH, priority 2008, published 2011).

Protein sequences, listed by entry. Tags and fused reporters are not part of them. Residues count along the entry.
UniProt P02768, 25-609: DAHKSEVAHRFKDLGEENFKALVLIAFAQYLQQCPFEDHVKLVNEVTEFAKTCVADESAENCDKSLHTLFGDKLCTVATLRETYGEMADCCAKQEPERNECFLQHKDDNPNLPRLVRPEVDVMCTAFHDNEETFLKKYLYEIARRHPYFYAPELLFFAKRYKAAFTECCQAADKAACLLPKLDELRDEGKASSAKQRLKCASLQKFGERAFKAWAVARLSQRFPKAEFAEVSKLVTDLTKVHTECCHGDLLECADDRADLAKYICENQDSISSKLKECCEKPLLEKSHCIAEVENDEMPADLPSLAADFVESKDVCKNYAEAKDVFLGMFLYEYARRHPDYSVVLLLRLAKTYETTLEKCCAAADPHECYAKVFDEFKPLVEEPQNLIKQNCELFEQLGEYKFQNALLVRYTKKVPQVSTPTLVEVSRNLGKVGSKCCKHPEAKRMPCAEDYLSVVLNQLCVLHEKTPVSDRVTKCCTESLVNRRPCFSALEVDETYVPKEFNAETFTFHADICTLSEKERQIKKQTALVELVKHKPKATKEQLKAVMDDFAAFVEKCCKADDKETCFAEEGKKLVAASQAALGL

Columns and labels:
[1] = target: HSA (human serum albumin) (Homo sapiens, UniProt P02768); assay: HSA binding constants (TRANSIL HSA Binding Kit)
[2] = Brain lipid-water partition coefficient log MAbrain (membrane affinity) on immobilized brain lipid membranes; type: physicochemical; conditions: Table 6; parameter set for free fraction in brain

Kd [1]	logMA_brain [2]	Compound
21 µM	–	CN(C)CCCN1c2ccccc2Sc2ccc(Cl)cc21 [Chlorpromazine, chlorpromazine]
–	2.02	O=C1NC(=O)C(c2ccccc2)(c2ccccc2)N1 [Phenytoin]
